Test system: Hypercholesterolemic Rats
Conditions: male Wistar rats fed 1% cholesterol and 0.5% cholic acid chow; i.p. three times at two-hour intervals (test compounds 1 and 2, 2 mg/kg×3; neostigmine bromide, 0.2 mg/kg×3); blood six hours after first administration; mean ± S.E., n = 5

Row | SMILES | LDL-cholesterol | Total cholesterol
1 | CN(C)C(=O)Oc1ccc[n+](COC(=O)c2ccccc2)c1.[Cl-] | 56.3 ± 15.9 mg % | 146.1 ± 27.0 mg %
2 | CN(C)C(=O)Oc1ccc[n+](COC(=O)C(C)(C)C)c1.[Cl-] | 49.1 ± 12.6 mg % | 77.6 ± 6.7 mg %
